This passage reports Kd and EC50 results from PMC3644557.

In test [1] the target is recombinant His-tagged apical membrane antigen 1 (His-AMA1), unlabeled (Plasmodium falciparum), Q7KQK5. Kind of test: SPR.
Test [2] has as its target FITC labeled RON2 peptide (Plasmodium falciparum). Kind of test: MST.
The target is the same in test [3]. Kind of test: fluorescence polarisation. A general note: Fluorescence polarisation rises when a labelled molecule tumbles more slowly, as on binding a larger partner.

As a reminder, the Kd is the constant that tells how readily two partners part at equilibrium. With DITQQAKDIGAGPVASCFTTRMSPPQQICLNSVVNTALS (modifications not checked) [unlabeled RON2 peptide], the Kd in test [1] turned out to be 38.3 nM.

B1: recombinant His-tagged apical membrane antigen 1 (His-AMA1), unlabeled, Q7KQK5 1-622 (natural protein)
chain: QNYWEHPYQNSDVYRPINEHREHPKEYEYPLHQEHTYQQEDSGEDENTLQHAYPIDHEGAEPAPQEQNLFSSIEIVERSNYMGNPWTEYMAKYDIEEVHGSGIRVDLGEDAEVAGTQYRLPSGKCPVFGKGIIIENSNTTFLTPVATGNQYLKDGGFAFPPTEPLMSPMTLDEMRHFYKDNKYVKNLDELTLCSRHAGNMIPDNDKNSNYKYPAVYDDKDKKCHILYIAAQENNGPRYCNKDESKRNSMFCFRPAKDISFQNYTYLSKNVVDNWEKVCPRKNLQNAKFGLWVDGNCEDIPHVNEFPAIDLFECNKLVFELSASDQPKQYEQHLTDYEKIKEGFKNKNASMIKSAFLPTGAFKADRYKSHGKGYNWGNYNTETQKCEIFNVKPTCLINNSSYIATTALSHPIEVENNFPCSLYKDEIMKEIERESKRIKLNDNDDEGNKKIIAPRIFISDDKDSLKCPCDPEMVSNSTCRFFVCKCVERRAEVTSNNEVVVKEEYKDEYADIPEHKPTYDKMK
modifications: not checked
Broadly, the EC50 is the midpoint of the concentration-response curve. With B1, the Kd in test [2] came to 28 nM. The EC50 in test [3] came out at 48 nM.
